Source: ChEMBL document CHEMBL4014315 (J Med Chem, 2017)

Assay: Therapeutic index, ratio of GI50 for ABCG2 over-expressing MDCK2 cells to IC50 for recombinant human GFP-fused ABCG2 expressed in MDCK2 cells
Assay type: cell-based

O=[N+]([O-])c1ccc(Nc2nc(-c3cccnc3)nc3ccccc23)cc1
TI: 1140
